A selection: hits, their analogues and other compounds. The true share with any hit is near 3.7%.
TCR act = activators of T cell receptors | Potency, µM (highest dose often 9.22 µM), without a hit: top-dose activation of IL-2 secretion, actives largely listed as activators | 330,000 tested, under 10 active | primary human leukocytes, anti-CD3, IL-2 HTRF, 48 h; note: % of control where 0% means no effect
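Primary human leukocytes receive a-CD3 beads and test compound and are incubated 48 hr. Secreted IL-2 is then assayed by HTRF, measuring 665nm acceptor emission after 320nm excitation of the europium donor.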
Nrf2 ARE act = activators of Nrf2 (ARE) signaling. AREc32 ARE-luciferase reporter (MCF7-derived line), luminescence, 24 h. Potency, µM (titrated, usually from 46.1 µM), for the others: at the top dose activation, hits mostly activators. 410,000 tested, 0.31% active. AID 624171; note: potency is the fitted concentration of half-maximal effect; % of control where 0% means no effect; nearly all actives have a fitted effect of over 65% in size
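ARE activation measured as luciferase luminescence (Steady-Glo, 30 min RT) in AREc32_Fluc cells after 24 hr compound exposure at 37 deg C, 5% CO2; cells seeded overnight at 1000/well in OPTI-MEM, 5% FBS.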
miR-21 reporter = raises the signal of a miR-21 reporter; 340,000 tested, under 10 active; HeLa miR-21 FLuc reporter, luciferase, 48 h; Potency, µM (highest dose often 38.3 µM), without a hit: top-dose reporter change, positive = more light; active = well fitted rising curve with a large enough effect; inconclusive = small, poorly fitted or top-dose-only effect; inactive = no such curve, though single readings can be large or run the other way;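 also: % of control where 0% means no effect; miR-21 action dims this reporter so a rising signal means less miR-21 action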
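Compounds were titrated across several concentrations (up to approximately 40 uM) and incubated 48 hours with HeLa miR-21-FLuc reporter cells (miR-21 target sequence downstream of FLuc, endogenous miR-21). Readout was firefly luciferase luminescence after lytic detection reagent.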
ClpP mod = qHTS Assay for Activators of ClpP. ATP-dependent Clp protease proteolytic subunit (Bacillus subtilis (strain 168)), P80244. purified B. subtilis ClpP, FRET peptide cleavage, 20 min. Potency, µM (top dose mostly 57.5 µM), for inactives: top-dose activity change, negative = active. 340,000 tested, 1.9% active. AID 651965, 2013; active = well fitted falling curve with a large enough effect; inconclusive = small, poorly fitted or top-dose-only effect; inactive = no such curve, though single readings can be large or run the other way; note: potency is the fitted concentration of half-maximal effect; the source files actives as falling curves though it sought activators and does not explain the sign; nearly all actives have a fitted effect of over 65% in size
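ClpP 10 microg/mL final, pH 8 Tris/KCl buffer with BSA, glycerol, Tween-20; compound pinned in; FRET-FV substrate; RT 20 min; Ex320/Em430; ΔFRET vs ADEP 5.8 microM, DMSO, no enzyme.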
A549 viability = counter-screen for Nrf2 inhibitors: cytotoxicity in A549 cells. A549 ARE-Fluc cells, CellTiter-Fluor viability, 18-24 h. Potency, µM (highest dose often 46 µM), inactives show at the highest dose activity change, negative = cytotoxicity, hits mostly inhibitors. 390,000 tested, 0.16% active; note: potency is the fitted concentration of half-maximal effect; % is set by controls: 0 for no effect and ±100 for the full control effect
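Cytotoxicity counterscreen: CellTiter-Fluor fluorescence was measured in A549 ARE_Fluc cells after 18-24 h of compound exposure in a concentration series. The subsequent BugLite luminescent read reports ARE-luciferase activity.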
Nrf2 inh = blocks Nrf2 signaling; A549 ARE-Fluc reporter, luciferase luminescence, 18-24 h; Potency, µM (highest dose often 46 µM), inactives show at the highest dose activity change, negative = inhibition, actives largely listed as inhibitors; 360,000 tested, 2.1% active; note: potency is the fitted concentration of half-maximal effect; % is set by controls: 0 for no effect and ±100 for the full control effect; nearly all actives have a fitted effect of over 60% in size
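Reporter: ARE-Fluc in A549. Exposure: 18-24 h, 37 °C, 5% CO2, 5% FBS OPTI-MEM. Readouts: fluorescent cytotoxicity (CellTiter-Fluor), then luminescent Nrf2 signal after BugLite.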
Starred values were filed as active, the others as inactive; ? = inconclusive; . = no result given; [ ] = another dose, or the depositor's remark. Unless noted, calls come from the whole dose curve; as a rule, active = well fitted curve in the direction sought with a large enough effect; inconclusive = small, poorly fitted or top-dose-only effect, or another doubt; inactive = no such curve, though single readings can be large; an effect the other way counts as inactive or inconclusive.

Short forms: A = TCR act; B = Nrf2 ARE act; C = miR-21 reporter; D = ClpP mod; E = A549 viability; F = Nrf2 inh
(1) Fc1ccc(C2=CC(c3ccco3)n3ncnc3N2)cc1 (configuration not stated)
  A: -10%[46.1 µM] | B: ? | C: -4% | D: -28% | E: ? | F: 11%

(2) Fc1ccc(C2=CC(c3ccc(Br)o3)n3ncnc3N2)cc1 (configuration not stated)
  A: 5%[46.1 µM] | B: 5% | C: 6% | D: 32µM* | E: ? | F: -15%

(3) C1=C(c2ccc(-c3ccccc3)cc2)Nc2ncnn2C1c1ccco1 (configuration not stated)
  A: -10% | B: ? | C: -36% | D: 16µM* | E: ? | F: .

(4) Brc1ccc(C2=CC(c3cccs3)n3ncnc3N2)cc1 (configuration not stated)
  A: -10% | B: ? | C: 11% | D: 32µM* | E: 11% | F: ?

(5) Oc1ccc(C2C=C(c3ccc(F)cc3)Nc3ncnn32)cc1 (configuration not stated)
  A: -5% | B: 5% | C: 0% | D: -19% | E: 1% | F: 0%

(6) Clc1ccccc1C1=CC(c2ccco2)n2nnnc2N1 (configuration not stated)
  A: -3% | B: ? | C: 4% | D: . | E: 0% | F: 0%

(7) Brc1ccc(C2=CC(c3ccco3)n3nnnc3N2)cc1 (configuration not stated)
  A: -1% | B: 5µM* | C: -5% | D: 1% | E: -2% | F: 1%

(8) O=C(CNc1ccccc1)N/N=C/c1ccc([N+](=O)[O-])o1
  A: 1% | B: 4% | C: 29% | D: -1% | E: ? | F: 18µM*

(9) Cc1ccc(NCC(=O)N/N=C\c2ccc([N+](=O)[O-])o2)cc1
  A: -24% | B: 8% | C: 28% | D: -2% | E: ? | F: 21µM*

(10) O=C(CCC(=O)Nc1ccc(Cl)cc1Cl)N/N=C/c1ccc([N+](=O)[O-])o1
  A: -6% | B: 21% | C: ? | D: . | E: -22% | F: 18µM*

(11) O=C(CNC(=O)c1ccccc1)N/N=C/c1ccc([N+](=O)[O-])o1
  A: 3%[46.1 µM] | B: 11% | C: 27% | D: 2% | E: ? | F: ?

(12) CCCCCC(=O)N/N=C/c1ccc([N+](=O)[O-])o1
  A: -4% | B: 2% | C: 27% | D: -5% | E: -19% | F: .

(13) CN(Cc1cccc(C(F)(F)F)c1)C(=O)[C@H]1O[C@@H](n2ccc(N)nc2=O)[C@H](O)[C@@H]1O
  A: . | B: 0% | C: . | D: 1% | E: . | F: .

(14) C/C(=N\NC(N)=O)c1c(F)cccc1F
  A: -6% | B: 0% | C: -1% | D: 32µM* | E: 2% | F: 1%

(15) COc1ccc(-n2c(-c3ccc(Br)cc3)c[n+]3c2CCc2ccccc2-3)cc1
  A: 0%[46.1 µM] | B: 8% | C: ? | D: -5% | E: -16% | F: 8.2µM*

Some of the entries so far, in markdown:
| cpd | compound | TCR act | Nrf2 ARE act | miR-21 reporter | ClpP mod | A549 viability | Nrf2 inh |
| --- | --- | --- | --- | --- | --- | --- | --- |
| 3 | C1=C(c2ccc(-c3ccccc3)cc2)Nc2ncnn2C1c1ccco1 (configuration not stated) | -10% | ? | -36% | 16µM* | ? | . |
| 2 | Fc1ccc(C2=CC(c3ccc(Br)o3)n3ncnc3N2)cc1 (configuration not stated) | 5%[46.1 µM] | 5% | 6% | 32µM* | ? | -15% |
| 15 | COc1ccc(-n2c(-c3ccc(Br)cc3)c[n+]3c2CCc2ccccc2-3)cc1 | 0%[46.1 µM] | 8% | ? | -5% | -16% | 8.2µM* |

Additional compounds:
Short forms: A = TCR act; B = Nrf2 ARE act; C = miR-21 reporter; D = ClpP mod; E = A549 viability; F = Nrf2 inh
(16) O=C1c2ccccc2C(=O)c2[nH]c(=O)[nH]c21
  A: 3% | B: -2% | C: ? | D: . | E: 15µM* | F: 21µM*

(17) c1cc2c3c(cccc3c1)-c1cnccc1-2
  A: 4% | B: 15% | C: . | D: . | E: 0% | F: ?

(18) CC1CC1c1ccc(/C=C(\C#N)C(=O)Nc2ccccc2Cl)o1 (configuration not stated)
  A: -3%[46.1 µM] | B: 13µM* | C: -62% | D: 0% | E: -4% | F: 28%

(19) CC1CC1c1ccc(/C=C(\C#N)C(=O)Nc2ccc(Cl)cc2)o1 (configuration not stated)
  A: -1%[46.1 µM] | B: 6.3µM* | C: -44% | D: 6% | E: -11% | F: ?

(20) N#C/C(=C/c1ccc(N2CCCCC2)o1)C(=O)Nc1ccc(Cl)cc1
  A: . | B: 3% | C: -49% | D: 4% | E: -15% | F: .

(21) COc1ccc(N2CCN(C(c3ccc(F)cc3)c3sc4nc(-c5ccco5)nn4c3O)CC2)cc1 (configuration not stated)
  A: . | B: 4% | C: 0% | D: -3% | E: 3% | F: .

(22) COC(=O)C1OC1c1cc([N+](=O)[O-])ccc1OC (configuration not stated)
  A: -4% | B: 5% | C: . | D: -4% | E: -11% | F: 6%

(23) COc1ccc([N+](=O)[O-])cc1C1NN=C(c2ccccc2O)S1 (configuration not stated)
  A: -1% | B: 4.5µM* | C: -16% | D: -4% | E: -24% | F: ?

Assay outcomes (PubChem BioAssay)
